BindingDB's records for 18825527

Sequences of proteins named here, by UniProt entry; tags and fusion partners are left off. Residues count along the entry.
UniProt P22303, 32-614 limits assumed: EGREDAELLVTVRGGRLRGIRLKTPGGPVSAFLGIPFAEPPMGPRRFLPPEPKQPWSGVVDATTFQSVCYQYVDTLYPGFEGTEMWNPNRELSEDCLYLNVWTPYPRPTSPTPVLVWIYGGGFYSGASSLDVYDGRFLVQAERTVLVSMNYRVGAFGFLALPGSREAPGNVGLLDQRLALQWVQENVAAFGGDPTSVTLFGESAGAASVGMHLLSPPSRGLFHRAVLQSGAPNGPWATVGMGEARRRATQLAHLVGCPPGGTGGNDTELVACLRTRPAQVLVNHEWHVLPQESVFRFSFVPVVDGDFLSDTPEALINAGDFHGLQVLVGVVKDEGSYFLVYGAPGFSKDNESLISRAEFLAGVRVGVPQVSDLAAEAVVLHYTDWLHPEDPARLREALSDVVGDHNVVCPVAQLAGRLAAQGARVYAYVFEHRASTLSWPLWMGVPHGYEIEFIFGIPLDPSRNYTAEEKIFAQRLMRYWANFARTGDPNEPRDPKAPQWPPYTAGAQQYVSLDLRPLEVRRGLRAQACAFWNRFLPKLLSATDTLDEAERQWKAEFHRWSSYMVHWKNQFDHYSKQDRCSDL
UniProt P06276, 29-602 limits assumed: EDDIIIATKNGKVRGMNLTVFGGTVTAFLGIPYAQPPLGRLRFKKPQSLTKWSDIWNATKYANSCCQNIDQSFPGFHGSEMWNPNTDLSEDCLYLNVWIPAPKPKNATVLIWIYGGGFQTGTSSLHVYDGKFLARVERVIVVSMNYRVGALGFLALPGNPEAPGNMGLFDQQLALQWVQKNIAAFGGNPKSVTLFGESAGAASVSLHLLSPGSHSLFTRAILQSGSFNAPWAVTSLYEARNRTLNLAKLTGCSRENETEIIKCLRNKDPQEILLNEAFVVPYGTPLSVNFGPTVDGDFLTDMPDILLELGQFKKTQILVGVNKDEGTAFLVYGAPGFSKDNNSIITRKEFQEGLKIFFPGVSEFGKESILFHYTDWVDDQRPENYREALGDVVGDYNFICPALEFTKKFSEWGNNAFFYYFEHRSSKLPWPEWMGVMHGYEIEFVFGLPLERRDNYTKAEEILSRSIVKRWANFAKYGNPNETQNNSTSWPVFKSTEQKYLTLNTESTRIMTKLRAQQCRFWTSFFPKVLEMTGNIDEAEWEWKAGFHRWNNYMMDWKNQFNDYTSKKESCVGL
UniProt P21836, 32-614 limits assumed: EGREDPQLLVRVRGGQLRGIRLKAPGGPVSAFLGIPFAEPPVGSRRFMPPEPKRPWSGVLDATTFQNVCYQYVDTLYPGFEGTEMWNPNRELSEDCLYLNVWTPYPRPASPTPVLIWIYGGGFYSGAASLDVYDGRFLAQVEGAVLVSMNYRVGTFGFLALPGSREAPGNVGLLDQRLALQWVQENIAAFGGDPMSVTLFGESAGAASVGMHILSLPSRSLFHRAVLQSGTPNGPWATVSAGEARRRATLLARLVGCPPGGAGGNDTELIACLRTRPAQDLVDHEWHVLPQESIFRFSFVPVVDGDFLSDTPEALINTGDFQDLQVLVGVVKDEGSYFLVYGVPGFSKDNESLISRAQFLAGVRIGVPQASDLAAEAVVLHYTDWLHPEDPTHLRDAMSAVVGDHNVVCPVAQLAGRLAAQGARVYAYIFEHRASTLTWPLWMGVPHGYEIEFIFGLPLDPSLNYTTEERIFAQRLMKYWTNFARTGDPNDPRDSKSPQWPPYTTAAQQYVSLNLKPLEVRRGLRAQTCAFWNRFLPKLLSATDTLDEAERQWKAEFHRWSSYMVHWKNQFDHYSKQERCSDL
UniProt Q03311, 30-603 limits assumed: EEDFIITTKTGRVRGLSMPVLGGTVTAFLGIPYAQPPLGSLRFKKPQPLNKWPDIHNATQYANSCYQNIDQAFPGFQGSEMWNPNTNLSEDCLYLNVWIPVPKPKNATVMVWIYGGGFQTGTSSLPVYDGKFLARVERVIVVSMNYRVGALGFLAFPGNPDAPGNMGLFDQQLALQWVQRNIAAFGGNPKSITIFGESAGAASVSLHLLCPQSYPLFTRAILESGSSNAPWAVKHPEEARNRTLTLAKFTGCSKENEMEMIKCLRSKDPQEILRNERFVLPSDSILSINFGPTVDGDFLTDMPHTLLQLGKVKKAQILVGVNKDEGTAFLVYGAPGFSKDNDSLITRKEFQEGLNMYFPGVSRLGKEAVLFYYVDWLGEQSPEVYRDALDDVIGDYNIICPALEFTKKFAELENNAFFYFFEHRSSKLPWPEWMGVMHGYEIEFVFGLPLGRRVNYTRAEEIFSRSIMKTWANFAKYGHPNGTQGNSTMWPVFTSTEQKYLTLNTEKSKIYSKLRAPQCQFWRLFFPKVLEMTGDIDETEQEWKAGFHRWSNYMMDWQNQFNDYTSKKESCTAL

Experiments:
Experiment in all cases: Inhibition Assay
[1] = target: Acetylcholinesterase (Homo sapiens, UniProt P22303); conditions: pH 7.4
[2] = target: Cholinesterase (Homo sapiens, UniProt P06276); conditions: pH 7.4
[3] = target: Acetylcholinesterase (Mus musculus, UniProt P21836)
[4] = target: Cholinesterase (Mus musculus, UniProt Q03311)

SMILES	IC50 [1] [µM]	Kd [1] [µM]	IC50 [2] [µM]	Kd [2] [µM]	IC50 ([3]; pH 7.4) [µM]	IC50 [4] [µM]	IC50 [3] [µM]
O=C(NP(=O)(Cl)Cl)c1ccc(Cl)cc1	87000	206	920	43000	–	–	–
O=C(NP(=O)(Cl)Cl)c1ccc(Br)cc1	57	230	650	2100	130	1600	–
O=C(NP(=O)(Cl)Cl)c1ccccc1	385	1100	4800	18000	–	9900	820
Cc1ccc(C(=O)NP(=O)(Cl)Cl)cc1	260	554	1200	8900	–	–	–
